According to US20120121589A1, “MODIFIED EGFR ECTODOMAIN” (WAYNE STATE UNIVERSITY, priority 2009, published 2012):
Entries after “also recorded” stand apart in the source; their conditions may differ.

The chains behind the UniProt entries cited, without tags or fusion partners. Residues count along the entry.
UniProt P21860, 20-1342: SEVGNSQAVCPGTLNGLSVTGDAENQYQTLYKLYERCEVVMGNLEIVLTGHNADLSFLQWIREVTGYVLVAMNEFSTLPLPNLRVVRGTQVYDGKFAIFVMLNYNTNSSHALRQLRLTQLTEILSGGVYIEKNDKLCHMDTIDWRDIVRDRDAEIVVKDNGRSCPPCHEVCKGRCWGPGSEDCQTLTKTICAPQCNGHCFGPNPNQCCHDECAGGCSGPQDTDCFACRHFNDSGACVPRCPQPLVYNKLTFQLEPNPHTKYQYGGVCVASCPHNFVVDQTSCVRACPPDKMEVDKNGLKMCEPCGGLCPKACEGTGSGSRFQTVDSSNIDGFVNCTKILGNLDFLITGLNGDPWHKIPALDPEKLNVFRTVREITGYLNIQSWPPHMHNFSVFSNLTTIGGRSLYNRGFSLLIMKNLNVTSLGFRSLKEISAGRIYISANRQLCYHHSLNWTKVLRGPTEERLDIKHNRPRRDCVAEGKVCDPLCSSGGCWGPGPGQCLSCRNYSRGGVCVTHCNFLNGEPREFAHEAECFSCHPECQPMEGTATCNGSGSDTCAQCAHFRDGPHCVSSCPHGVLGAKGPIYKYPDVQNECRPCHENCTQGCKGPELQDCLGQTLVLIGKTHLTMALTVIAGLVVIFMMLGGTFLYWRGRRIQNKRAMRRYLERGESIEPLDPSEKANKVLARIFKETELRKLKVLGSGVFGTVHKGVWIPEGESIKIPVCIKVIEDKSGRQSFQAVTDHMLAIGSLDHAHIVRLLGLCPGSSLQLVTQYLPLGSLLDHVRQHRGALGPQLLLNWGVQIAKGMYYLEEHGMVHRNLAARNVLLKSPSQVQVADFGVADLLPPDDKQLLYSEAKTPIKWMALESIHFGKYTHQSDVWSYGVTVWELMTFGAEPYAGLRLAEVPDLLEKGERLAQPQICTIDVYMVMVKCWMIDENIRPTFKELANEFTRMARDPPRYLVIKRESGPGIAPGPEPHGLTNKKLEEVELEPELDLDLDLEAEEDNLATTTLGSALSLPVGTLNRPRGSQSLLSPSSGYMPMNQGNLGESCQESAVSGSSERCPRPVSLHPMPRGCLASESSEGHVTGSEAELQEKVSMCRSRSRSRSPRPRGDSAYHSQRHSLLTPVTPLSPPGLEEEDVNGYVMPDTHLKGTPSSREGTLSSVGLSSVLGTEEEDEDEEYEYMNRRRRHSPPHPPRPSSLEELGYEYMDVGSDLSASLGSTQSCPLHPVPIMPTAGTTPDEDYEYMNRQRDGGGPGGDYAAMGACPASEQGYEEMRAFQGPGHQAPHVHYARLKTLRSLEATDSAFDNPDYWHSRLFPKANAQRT

Legend:
[1] = test system: colon cancer HCT-116 cells; assay: MTT growth assay in colon cancer HCT-116 cells; type: cell-based; details: for inhibition of growth (MTT): increasing doses, FIG. 3
Experimental: (§1) Growth inhibition assay included the following aspects. […] At the end of the treatment period, cells were incubated with 10% of 5 mg/mL stock of MTT and incubated for 3 hours at 37° C.

[2] = test system: breast cancer SKBR-3 cells; assay: MTT growth assay in breast cancer SKBR-3 cells; type: cell-based, human; details: increasing concentrations, 48 h; FIG. 7
Experimental: In various embodiments, different modified ectodomains of EGFR are effective in inhibiting the growth of HER-2 as well as HER-3 expressing cells.
as §1

HER-3 = target: T1, HER-3 (Homo sapiens, UniProt P21860); assay: Heregulin-induced phosphorylation of HER-3 in MDA-MB-453 cells; type: cell-based; details: preincubation, then heregulin, FIG. 8, FIG. 19
T1 construct: endogenous in cells; host or cells: MDA-MB-453
From the text: (§2) The breast cancer MDA-MB-453 cells contain high levels of HER-2 and HER-3. One of the ligands of HER-3 is heregulin. Binding of heregulin HER-3 leads to activation and subsequent heterodimerization of HER-3 with one or more EGFR family members. EBIP is also effective in abrogating heregulin-induced phosphorylation of HER-2 and HER-3 in MDA-MB-453 cells.
(§3) Western blot analysis included the following aspects. […] Cancer Lett 2009.

c-Src = assay: TGF-α-induced phosphorylation of Src in HCT-116 cells (Western blot); type: cell-based; details: prior exposure, FIG. 5
From the text: Referring now to FIG. 5, TGF-α markedly stimulates phosphorylation of Tyr416 of c-Src.
as §3

HER-2 = target: T2, HER-2 (Homo sapiens, UniProt P04626); assay: Heregulin-induced phosphorylation of HER-2 in MDA-MB-453 cells; type: cell-based; details: preincubation, then heregulin, FIG. 8, FIG. 19
T2 construct: endogenous in cells; host or cells: MDA-MB-453
From the text: as §2, §3

EGFR [3] = target: T3, EGFR (Homo sapiens, UniProt P00533); assay: TGF-α-induced tyrosine phosphorylation of EGFR (Western blot); type: cell-based; design: endogenous in cells; details: preincubation 10 μg/ml for 30 min; 10 nM TGF-α for 10 min; FIG. 4
From the text: Accordingly, in various embodiments the “U” region in elicits the growth inhibitory properties of ERRP and human EGFR-448+U (EBIP). ERRP and EBIP (hEGFR1-448+U) may also attenuate TGF-α-induced activation of EGFR as determined by examining the levels of the tyrosine phosphorylated form of EGFR, as illustrated in FIG. 4. […] In the short-term, the levels of total EGFR (unphosphorylated) remain unaffected by this treatment (FIG. 4).
as §3

EGFR [4] = target: T3, EGFR; assay: EGFR phosphorylation in MDA-MB-468 cells (Western blot); details: dasatinib 1 μmol/L, EBIP 2.5 μg/mL, FIG. 15C
MDA-MB-231 cells = assay: MTT growth assay and CalcuSyn synergy analysis in MDA-MB-231 cells; type: cell-based, human
Experimental: as §1
(§4) Analysis of interaction between two drugs included the following aspects. Combination index (CI) method adapted for in vitro anticancer drug testing was used to determine the nature of interaction between the two agents as described by Majumdar APN, Banerjee S, Nautiyal J, et al. Curcumin synergizes with resveratrol to inhibit colon cancer. Nutr Cancer 2009; 61:544-53. Based on CI values, the extent of synergism/antagonism may be determined.

[5] = test system: breast cancer cells (MDA-MB-468, SKBr-3, MDA-MB-453, and MDA-MB-231); assay: MTT growth assay in four breast cancer cell lines; type: cell-based, human; details: breast cancer cells expressing varying levels of EGFRs; FIGS. 13B and 13C
Experimental: as §1

MDA-MB-468 cells = assay: MTT growth assay and CalcuSyn synergy analysis in MDA-MB-468 cells; type: cell-based, human; details: for EBIP (Fa): MDA-MB-468
Experimental: as §1, §4

[6] = test system: Erks (extracellular signal-regulated kinases); assay: TGF-α-induced phosphorylation of ERKs in HCT-116 cells (Western blot); type: cell-based; details: prior exposure
From the text: As observed for EGFR and Src phosphorylation, TGF-α markedly stimulates phosphorylation of Erks (extracellular signal-regulated kinases).
as §3

MDA-MB-468 xenografts = MDA-MB-468 xenografts in SCID mice, tumor growth; type: in vivo
Experimental: Severe combined immunodeficient mice xenografts of MDA-MB-468 cells included the following aspects. […] When tumor burden reached 1,500 to 2,000 mg, mice were euthanized. The tumors were removed, cut into 20 to 30 mg fragment, and subsequently transplanted (s.c.) bilaterally into similarly conditioned 28 animals. […] Treatment was started on day 7 and continued until day 23. Animals and tumor burden were followed for up to 55 days. Tumor measurements were carried out at multiple time points during the experimental period. Mice were weighed and monitored for signs of toxicity. Tumor weights in SCID mice were estimated as tumor weight (mg)=(A×B2)/2, where A and B are the tumor length and width (in mm), respectively. […] Biochem Biophys Res Commun 2009; 378:344-7.

[7] = test system: breast cancer SKBR cell xenografts; assay: SKBR cell xenografts in SCID mice; type: in vivo; details: vs vehicle, FIG. 9
From the text: SKBR cells express high levels of HER-2 but contain little no HER-1/EGFR or HER-3. […] At the end of the 40 day experimental period, intratumoral (i.t.) injection of ERRP causes a little over 50% inhibition of tumor growth, when compared with the controls (FIG. 9).

[8] = Immunohistochemical detection of EBIP (V5 antibody) in tumor remnants; type: in vivo, SCID mice; details: end of the 55-day period; V5 antibody staining; FIG. 17A
From the text: Immunohistochemical analysis included the following aspects. […] Biochem Biophys Res Commun 2009; 378:344-7.

EGFR [9] = target: T3, EGFR; assay: Coimmunoprecipitation of EBIP with EGFR in MDA-MB-468 cells after TGF-α induction; type: binding; design: endogenous in cells; host or cells: MDA-MB-468; details: MDA-MB-468 cells preincubated with EBIP, induced with TGF-α; FIG. 12C
Experimental: FIG. 12: Panel A is a schematic representation of (i) full-length hEGFR and four different plasmid constructs of (ii) rat ERRP (amino acids 1-478), (iii) rat EGFR ectodomain (ERRP without U region; referred to as ERRP-448), (iv) hEGFR ectodomain (referred to as hEGFR-501), and (v) hEGFR ectodomain fused with U region (referred to as hEGFR-448+U or EBIP). […] Recombinant proteins containing both His and V5 tags were purified using His tag and immunoblotted with V5 antibody. […] After 8 h of incubation with EBIP, MDA-MB-468 cells, which were serum starved, were induced with TGF-α. The cell lysates were immunoprecipitated with EGFR antibodies overnight and the immunoprecipitates were subsequently subjected to Western blot analysis with V5 antibody for EBIP detection.
In the absence of 0.5 mmol/L CuSO4, no expression of EBIP was detected (FIG. 12B). Because EBIP contains the ligand binding ectodomain of hEGFR, we postulated that it will sequester the ligand, leading to heterodimerization with members of the EGFRs.

phospho-EGFR = phospho-EGFR (Homo sapiens, UniProt P00533); assay: Phospho-EGFR (Tyr1173) immunohistochemistry of tumor remnants; details: day 55, FIG. 20

hEGFR-501: human EGFR ectodomain that includes amino acids 1-501 but lacks the U region (SEQ ID NO: 13) [reference compound]
inhibition of growth (MTT) [1]: only marginally effective
inhibition of growth of SKBR-3 cells [2]: neither rEGFR-447 nor hEGFR-501 caused any apparent change in the growth
inhibition of heregulin-induced phosphorylation/activation of HER-3 (HER-3): neither rEGFR-447 nor hEGFR-501 is effective; also recorded: neither rEGFR-447 nor hEGFR-501 re effective
attenuation of TGF-α-induced phosphorylation of Tyr416 of c-Src (c-Src): less attenuation
inhibition of heregulin-induced phosphorylation/activation of HER-2 (HER-2): neither rEGFR-447 nor hEGFR-501 is effective; also recorded: neither rEGFR-447 nor hEGFR-501 re effective
attenuation of TGF-α-induced tyrosine phosphorylation of EGFR (amino acid 845) (EGFR [3]): do not attenuate

B1: EBIP: human EGFR ectodomain amino acids 1-448 fused at the C-terminus to the 30-amino acid U region of rat ERRP (SEQ ID NO: 14) (protein, listed as Homo sapiens)
chain: MRPSGTAGAALLALLAALCPASRALEEKKVCQGTSNKLTQLGTFEDHFLSLQRMFNNCEVVLGNLEITYVQRNYDLSFLKTIQEVAGYVLIALNTVERIPLENLQIIRGNMYYENSYALAVLSNYDANKTGLKELPMRNLQEILHGAVRFSNNPALCNVESIQWRDIVSSDFLSNMSMDFQNHLGSCQKCDPSCPNGSCWGAGEENCQKLTKIICAQQCSGRCRGKSPSDCCHNQCAAGCTGPRESDCLVCRKFRDEATCKDTCPPLMLYNPTTYQMDVNPEGKYSFGATCVKKCPRNYVVTDHGSCVRACGADSYEMEEDGVRKCKKCEGPCRKVCNGIGIGEFKDSLSINATNIKHFKNCTSISGDLHILPVAFRGDSFTHTPPLDPQELDILKTVKEITGFLLIQAWPENRTDLHAFENLEIIRGRTKQHGQFSLAVVSLNITSLPWQVPSLSWQAVTRPLHPLAQNRVSWDTGP
inhibition of phosphorylation/activation of EGFR (EGFR [4]): inhibited the phosphorylation
inhibition of growth ([1]; dose of 20 μg/mL, vs corresponding controls, FIG. 18): 70%
inhibition of growth (MTT) [1]: inhibit the growth of colon cancer HCT-116 cells in a dose dependent manner
inhibition of growth of SKBR-3 cells [2]: markedly inhibit the growth in a dose-dependent manner
EBIP (Fa) (MDA-MB-231 cells; EBIP 1.25 μg/ml): 0.105
EBIP (Fa) (MDA-MB-231 cells; EBIP 2.5 μg/ml): 0.223
EBIP (Fa) (MDA-MB-231 cells; EBIP 5.0 μg/ml): 0.387
EBIP (Fa) (MDA-MB-231 cells; EBIP 10.0 μg/ml): 0.535
inhibition of growth of breast cancer cells, single agent [5]: inhibited the growth; also recorded: effective
inhibition of heregulin-induced phosphorylation/activation of HER-3 (HER-3): inhibited; also recorded: able to inhibit; also recorded: abrogates this stimulation
attenuation of TGF-α-induced phosphorylation of Tyr416 of c-Src (c-Src): abrogated
EBIP (Fa) (MDA-MB-468 cells; EBIP 1.25 μg/ml): 0.302
EBIP (Fa) (MDA-MB-468 cells; EBIP 2.5 μg/ml): 0.385
EBIP (Fa) (MDA-MB-468 cells; EBIP 5.0 μg/ml): 0.435
EBIP (Fa) (MDA-MB-468 cells; EBIP 10.0 μg/ml): 0.475
inhibition of growth of MDA-MB-468 cells (MDA-MB-468 cells; immunoaffinity-purified protein, FIG. 12D): equally effective
attenuation of TGF-α-induced phosphorylation of Erks ([6]; FIG. 6, listed as hEGFR+U): greatly attenuated
attenuation of TGF-α-induced phosphorylation of Erks ([6]; FIG. 6, listed as hEGFR-448): not
tumor growth, significance of inhibition (MDA-MB-468 xenografts; P<0.05, FIG. 16, Table 3): significantly reduced tumor growth
tumor weight at the end of 55 days, Mean ± SD (MDA-MB-468 xenografts; day-55, dasatinib 10 mg/kg gavage and/or EBIP 25 μg/mouse s.c., every other day, day 7 to 23): 326 ± 304 mg
inhibition (suppression) of tumor growth (MDA-MB-468 xenografts; vs vehicle-treated controls, dasatinib 10 mg/kg gavage and/or EBIP 25 μg/mouse s.c., every other day): about 59%
tumor growth of SKBR xenografts [7]: inhibits growth
inhibition of heregulin-induced phosphorylation/activation of HER-2 (HER-2): inhibited; also recorded: able to inhibit; also recorded: abrogates this stimulation
presence of EBIP in the tumors [8]: significant expression of EBIP was observed in the tumors
attenuation of TGF-α-induced tyrosine phosphorylation of EGFR (amino acid 845) (EGFR [3]): greatly abrogates this stimulation
coimmunoprecipitation with EGFR (EGFR [9]): coimmunoprecipitate with EGFR
phospho-EGFR (Tyr1173) immunoreactivity in tumor remnants (phospho-EGFR): no detectable immunoreactivity for phospho-EGFR
